These results are taken from PubChem BioAssay AID588489 (Sanford-Burnham Center for Chemical Genomics, 2011).

By UniProt entry, the sequences of proteins in these tests, tags left out.
UniProt P11940, whole entry: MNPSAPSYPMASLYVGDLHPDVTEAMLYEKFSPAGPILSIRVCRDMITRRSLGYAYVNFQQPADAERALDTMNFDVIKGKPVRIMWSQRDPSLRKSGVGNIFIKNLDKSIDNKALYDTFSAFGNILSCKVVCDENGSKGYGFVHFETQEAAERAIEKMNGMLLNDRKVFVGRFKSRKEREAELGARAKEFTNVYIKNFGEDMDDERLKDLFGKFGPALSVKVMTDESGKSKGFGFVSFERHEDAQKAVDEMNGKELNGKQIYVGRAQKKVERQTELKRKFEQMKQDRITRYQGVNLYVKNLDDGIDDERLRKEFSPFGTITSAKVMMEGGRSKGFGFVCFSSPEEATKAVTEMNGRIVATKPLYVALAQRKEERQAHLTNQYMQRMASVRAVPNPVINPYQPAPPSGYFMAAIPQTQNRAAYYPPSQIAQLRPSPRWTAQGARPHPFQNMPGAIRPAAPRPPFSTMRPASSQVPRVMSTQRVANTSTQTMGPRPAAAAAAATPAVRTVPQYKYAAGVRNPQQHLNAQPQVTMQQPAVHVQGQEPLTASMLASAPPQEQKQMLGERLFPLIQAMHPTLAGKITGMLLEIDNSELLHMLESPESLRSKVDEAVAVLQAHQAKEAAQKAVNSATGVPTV

Molecules are shown by their SMILES. The list shows a part of the results, in another mix than the full data. Some of these compounds have results that are not shown, active ones among them. Active and inactive are the calls of the source. Cut-off read from the data, not from the text of the source: active = inhibition above about 35% (passing the limit was not always enough); inactive = the rest.

This assay addresses Polyadenylate-binding protein 1 (Homo sapiens) (UniProt P11940). The experiment in a line: PAM2 peptide displacement from PABP1 MLLE – biochemical, fluorescence polarization, FITC-PAM2, GST-MLLE, primary screen (AID 588489).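 Note: plate controls were DMSO wells with GST-MLLE for no effect and wells lacking GST-MLLE protein for full effect.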 The following applies: at 20 µM, active compounds read high.
As to `COc1ccc(C(=O)NCC2(N(C)C)CCCCC2)cc1`, the inhibition was inactive: -14.3%.

`O=C(NCC1(N2CCCCC2)CCCCC1)c1cccc(Br)c1`: the inhibition is inactive: -5.8%.

For `Cc1cc(C(=O)NCC2(N3CCCCC3)CCCCC2)ccc1[N+](=O)[O-]`, the inhibition is inactive: -4.14%.

Take `CCN1CCCC(OC(=O)C2(O)c3ccccc3C=Cc3ccccc32)C1` (stereo unspecified): the inhibition is inactive: -2.95%.

For `O=C(NCC1(N2CCCCC2)CCCCC1)c1cc(F)c(F)cc1Cl`, the inhibition was inactive: 2.65%.

On to `C=CCN1CCN(CCOC(=O)C(O)(c2ccccc2)c2ccccc2)CC1`, for which the inhibition is inactive: -3.09%.

As for `CN(C)C1CCCC1OC(=O)C(O)(c1ccccc1)c1ccccc1` (stereo unspecified), the inhibition was inactive: 22.5%.

For `CN(C)c1ccc(C(=O)NCC2(N(C)C)CCCCC2)cc1`, the inhibition was inactive: -4.01%.

Take `Cc1ccccc1C(=O)NCC1(N2CCCCC2)CCCCC1`: the inhibition was inactive: -6.51%.

Consider `Cc1ccc(C(=O)NCC2(N3CCCCC3)CCCCC2)cc1`, for which the inhibition was inactive: -7.9%.

`COc1cc(SC)ccc1C(=O)NCC1(N(C)C)CCCCC1`: the inhibition is inactive: -10.8%.

With `CCN(CC)CC(C)C(C)OC(=O)C(O)(c1ccccc1)c1ccccc1` (stereo unspecified), the inhibition was inactive: -2.73%.

`CC(C)N1C(=O)CC2(CCN(CCOC(=O)C(O)(c3ccccc3)c3ccccc3)CC2)C1=O`: the inhibition is inactive: 5.48%.

Regarding `CN1[C@@H]2CC[C@H]1CC(OC(=O)C(O)(c1ccccc1)c1ccccc1)C2` (stereo partly specified), the inhibition was inactive: -18.6%.

On to `O=C(NCC1(N2CCCCC2)CCCCC1)c1cc([N+](=O)[O-])ccc1Cl`, for which the inhibition is inactive: -30.4%.

Take `O=C(OCCN1CCCC1)C(O)(c1ccccc1)c1ccccc1`: the inhibition was inactive: 5.82%.

With `CC(C)Oc1ccc(C(=O)NCC2(N(C)C)CCCCC2)cc1`, the inhibition is inactive: 7.64%.

In the case of `CN(C)c1cccc(C(=O)NCC2(N(C)C)CCCCC2)c1`, the inhibition was inactive: 2.32%.

As for `C=C(C)C#CC(O)(C(=O)OC1CCN(C)CC1)c1ccccc1` (stereo unspecified), the inhibition was inactive: 5.49%.

Consider `COc1ccc(Br)c(C(=O)NCC2(N3CCCCC3)CCCCC2)c1`, for which the inhibition was inactive: -8.99%.

Consider `O=C(OC1CN2CCC1CC2)C(CO)(c1ccccc1)c1ccccc1` (stereo unspecified), for which the inhibition was inactive: -12.8%.

For the compound `O=C(NCC1(N2CCCCC2)CCCCC1)c1cccc(Cl)c1`, the inhibition was inactive: -3.38%.

Take `COc1ccc(Cl)cc1C(=O)NCC1(N(C)C)CCCCC1`: the inhibition was inactive: -10.4%.

As for `COc1cccc(C(=O)NCC2(N3CCCCC3)CCCCC2)c1`, the inhibition was inactive: -6.21%.

Turning to `COc1cc(C(=O)NCC2(N(C)C)CCCCC2)c([N+](=O)[O-])cc1OC`, the inhibition was inactive: 8.56%.

As for `CN(C)C1(CNC(=O)c2ccc(Br)cc2)CCCCC1`, the inhibition was inactive: -3.73%.
